The values that follow come from patent US4336192A, “5,6-Dihydro-11-alkylene-morphanthridin-6-ones” (BASF Aktiengesellschaft, priority 1979, dated 1982).

This assay concerns female NMRI mice. Put plainly: Anti-cholinergic effect: protection against death from Physostigmin. As to conditions: mouse, in vivo. The procedure:
3. Anti-cholinergic effect
A lethal dose (0.825 mg/kg) of Physostigmin is administered subcutaneously to groups of 10 female NMRI mice. The test substances are administered orally 30 minutes before administering the Physostigmin.
The ED 50% is the dose of substance which protects 50% of the animals against death from Physostigmin.

In the case of `CN1CCN(C2=Nc3ccccc3C(=CC#N)c3ccccc32)CC1` (mixture of isomers) [Example 17 (cis-trans mixture), cis,trans-11-cyanomethylene-6-(4-methyl-piperazin-1-yl)-morphanthridine], the “Anti-cholinergic effect R.A. (relative activity)” value turned out to be 2.25.
